This is an account of results in ChEMBL document CHEMBL1135692, “Structure-activity relationships of the melanocortin tetrapeptide Ac-His-D-Phe-Arg-Trp-NH2 at the mouse melanocortin receptors. 4. Modifications at the Trp position” (J Med Chem, 2002).

Protein sequences, listed by entry. Tags and fused reporters are not part of them. Lines headed by an entry give the natural chain unless they say otherwise; changes in a name come on top.
UniProt Q01727: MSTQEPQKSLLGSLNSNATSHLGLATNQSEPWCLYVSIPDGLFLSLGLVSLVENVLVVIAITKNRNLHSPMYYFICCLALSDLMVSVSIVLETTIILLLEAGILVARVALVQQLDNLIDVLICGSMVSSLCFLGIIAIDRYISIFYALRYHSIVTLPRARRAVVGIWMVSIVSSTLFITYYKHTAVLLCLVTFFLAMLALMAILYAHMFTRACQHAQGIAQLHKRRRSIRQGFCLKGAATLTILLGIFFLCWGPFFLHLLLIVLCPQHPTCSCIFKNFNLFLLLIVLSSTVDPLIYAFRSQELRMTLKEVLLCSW

In this test the target is Melanocyte-stimulating hormone receptor (Mus musculus, UniProt Q01727). The experiment in a line: Activity in mouse melanocortin-1 receptor stably expressed in HEK293 cells. The format is cell-based.

pEC50: −log10 of the molar value.

The pEC50 is −log10 of the EC50, conventionally taken in molar units. A high value points to a small EC50. For the compound `CC(=O)N[C@@H](Cc1cnc[nH]1)C(=O)N[C@H](Cc1ccccc1)C(=O)N[C@@H](CCCN=C(N)N)C(=O)NC(Cc1c[nH]c2ccccc12)C(N)=O` (stereo in doubt), the pEC50 was 6.85.
